Molecular target: IRAK4 (Homo sapiens, UniProt Q9NWZ3)
Experiment: OCI-LY10 IRAK MSD assay DC50 (IRAK4 degradation)
Settings: read-out: OCI-LY10 IRAK4 DC50, OCI-Ly10 cells, incubated for 4 hr, concentration of compound required to degrade 50% of protein
Method: A MSD assay is run to determine the concentration of compound required to degrade 50% of protein (DC50).
• Compounds were reconstituted to 10 mM in stock solutions. The stock solutions were diluted to 5 mM and 45 μL of each dilution was transferred to a 384 pp-plate. […]
• The MSD coated plate was washed 3× (150 μL/well) with 1×TBST (CST #9997S). • The MSD plate was then blocked with 150 μL of blocking buffer [3% Blocker A (MSD, R93BA-4) in TBST]/well and shaken for 1 hr at RT and 600 rpm. • The MSD plate was washed 3× (150 μL/well) with 1×TBST. […] The plate was then shaken for 1 hr at RT and 600 rpm. • The MSD plate was then washed 3× (150 μL/well) with 1×TBST. • 1×MSD reading buffer was then added (150 μL/well) and the plate […].
(MSD, R92TC-2) • The MSD instrument was then read.
The remaining activity was calculated following the formula below:
• The DC50 was calculated by fitting the Curve using Xlfit (v5.3.1.3), equation 201: […]

The chains behind the UniProt entries cited, without tags or fusion partners.
UniProt Q9NWZ3, whole entry: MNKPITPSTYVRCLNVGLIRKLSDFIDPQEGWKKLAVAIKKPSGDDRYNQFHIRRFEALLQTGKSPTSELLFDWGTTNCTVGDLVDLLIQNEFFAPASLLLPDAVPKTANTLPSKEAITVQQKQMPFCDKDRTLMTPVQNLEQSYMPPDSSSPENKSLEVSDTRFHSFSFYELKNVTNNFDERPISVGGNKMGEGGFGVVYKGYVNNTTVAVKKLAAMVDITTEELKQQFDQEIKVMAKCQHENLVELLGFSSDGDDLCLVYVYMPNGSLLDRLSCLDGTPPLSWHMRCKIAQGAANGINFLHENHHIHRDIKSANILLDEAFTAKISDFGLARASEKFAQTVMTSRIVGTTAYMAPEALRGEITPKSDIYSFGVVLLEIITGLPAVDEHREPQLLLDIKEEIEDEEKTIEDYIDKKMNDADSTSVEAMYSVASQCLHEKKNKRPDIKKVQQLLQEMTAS

DC50 | SMILES
10 to 100 nM | O=C1CCN(c2cncc3c(C4CCN(C[C@H]5CC[C@H](n6cc7cc(NC(=O)c8cccc(C(F)(F)F)n8)ncc7n6)CC5)CC4)cccc23)C(=O)N1
< 10 nM | COc1cc2nc([C@H]3CC[C@H](CN4CCC(c5ccn6c(N7CCC(=O)NC7=O)cnc6c5C)CC4)CC3)sc2cc1NC(=O)c1cccc(C(F)(F)F)n1

— patent publication US20250375526A1, “IRAK DEGRADERS AND USES THEREOF” (Kymera Therapeutics, Inc., priority 2020, published 2025)
